ARFGAP1 inhibitor: inhibitors of rat ARFGAP1 GAP activity, primary screen, biochemical, fluorescence polarization, GDP tracer | 360,000 tested, 0.26% active | Arfgap1-stimulated ARF1 GTP hydrolysis, GDP FP detection | ADP-ribosylation factor GTPase-activating protein 1 (Rattus norvegicus), Q62848 | AID 651572, 2012 | inhibition, % at 16.5 µM;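 active means inhibition above a per-plate limit, mean inhibition of low control wells plus 3 SD, cut at about 25% in these data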;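 further: 0% = DMSO wells with enzyme and 100% = wells lacking Arfgap1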
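System: truncated rat Arfgap1 GAP domain / Medium: HEPES-based buffer, pH 7.5 / Also added: N-terminally truncated human ARF1-GTP substrate / Incubation: enzyme reaction 120 min at 25 °C after 20 min preincubation / Measured by: FP of antibody-bound GDP Alexa 633 tracer, ex 620/em 688 nm / Replicates: singlicate, each compound tested once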
ASAP1 inh: inhibitors of human ASAP1 ArfGAP activity, primary screen, biochemical, fluorescence polarization. Arf-GAP with SH3 domain, ANK repeat and PH domain-containing protein 1 (Homo sapiens), …. ASAP1-stimulated ARF1 GTP hydrolysis, GDP FP detection. inhibition, % at 16.5 µM. 360,000 tested, 0.19% active; in the data active means inhibition above about 25%;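 further: 0% = vehicle with enzyme and substrate and 100% = no enzyme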
MC4R ag barr: MC4R agonists recruiting beta-arrestin, primary screen, cell-based, luminescence, agonist arm of biased-ligand search | Melanocortin receptor 4 (Homo sapiens), P32245 | U2OS MC4R beta-arrestin complementation; percent of melanotan II response, DMSO zero | activation, % at 8.9 µM | 360,000 tested, 0.98% active;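 active means activation above a per-plate cutoff, the mean activation of sample wells on that plate plus 3 SD, cut at about 8% in these data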
NRP1-CendR mod: modulators of CendR peptide binding to NRP-1, primary screen, biochemical, fluorescence polarization, uHTS | FAM-RPARPAR peptide binding to NRP-1 | inhibition, % at 25 µM | 360,000 tested, 0.85% active | AID 602438, 2012;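 active means inhibition or corrected inhibition above about 18%, plus a signal ratio from 0.5 to 1.5, limit read from the data, passing the limit was not always enough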
MC4R antag cAMP: MC4R antagonists of cAMP signaling, primary screen, cell-based, TR-FRET, antagonist arm of biased-ligand search | Melanocortin receptor 4 (Homo sapiens), P32245 | MC4R-expressing cells, MTII-stimulated cAMP, LANCE TR-FRET | inhibition, % at 6.5 µM | 360,000 tested, 0.48% active;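 active means inhibition above its plate's cutoff, the mean of tested wells on that plate plus 3 SD, cut at about 29% in these data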;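 further: 0% = Melanotan II alone and 100% = Melanotan II plus saturating MCL0020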
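Assay system: U2OS cells stably expressing human melanocortin 4 receptor (MC4R) / Dosing: 6.5 µM / Timing: compound 30 min, challenge 1 h, detection 1 h / Measured by: Eu-cAMP/anti-cAMP TR-FRET, emission 671 nm / Replicates: singlicate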
Yeast UUG start: yeast start codon fidelity modulation | S. cerevisiae UUG-firefly luciferase reporter, luminescence/redox ratio | activity score, % at 18.7 µM | 0.13% of 350,000 active | AID 602363;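 active means replicate mean at a twofold rise or more, about +100% in these data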;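 further: firefly luciferase made from a UUG start codon reports start codon fidelity; reporter light over untreated wells divided by growth signal over untreated wells; some hits fall short of that in this replicate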
MC4R barr conf: MC4R beta-arrestin agonists, retest, confirmation, cell-based, luminescence, U2OS; shares compounds with MC4R ag barr; U2OS MC4R beta-arrestin recruitment; scaled DMSO 0%, Melanotan II 100%; activation, % at 8.9 µM; 2,400 tested, 31% active;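 active means mean activation across replicates above the hit cutoff set in the earlier primary screen, cut at about 8% in these data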
MOR DOR agonist: agonists of MOR-DOR heterodimerization, counter-screen for MC4R biased agonist project, cell-based, luminescence | shares compounds with MC4R ag barr | U2OS PathHunter beta-arrestin, beta-gal luminescence; percent of deltorphin B response, DMSO zero | activation, % at 9.2 µM | 2,400 tested, 5.8% active | AID 602194, 2012;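 active means mean activation across replicates exceeds the hit threshold derived in the earlier primary screen, cut at about 18% in these data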;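 further: 100% = deltorphin B at 0.9 µM final and 0% = DMSO alone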
* hit, by the source's call; x = no result given. Compounds with a hit are over-represented: about 2.3% of the library has one in this group of screens.

The chains behind the UniProt entries cited, without tags or fusion partners.
ADP-ribosylation factor GTPase-activating protein 1 (Rattus norvegicus), Q62848, UniProt Q62848, whole entry, looked up: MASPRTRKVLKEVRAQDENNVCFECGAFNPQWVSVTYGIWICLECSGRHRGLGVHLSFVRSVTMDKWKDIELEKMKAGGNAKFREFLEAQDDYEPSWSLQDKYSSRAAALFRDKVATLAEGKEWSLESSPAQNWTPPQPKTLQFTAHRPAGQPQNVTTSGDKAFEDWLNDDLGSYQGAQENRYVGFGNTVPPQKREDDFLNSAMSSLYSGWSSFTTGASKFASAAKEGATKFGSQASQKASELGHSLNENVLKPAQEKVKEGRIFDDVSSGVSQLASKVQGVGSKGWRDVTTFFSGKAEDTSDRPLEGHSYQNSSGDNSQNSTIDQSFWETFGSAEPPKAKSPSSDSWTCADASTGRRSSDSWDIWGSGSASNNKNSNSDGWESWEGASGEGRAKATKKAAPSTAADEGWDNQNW
Melanocortin receptor 4 (Homo sapiens), P32245, UniProt P32245, whole entry, looked up: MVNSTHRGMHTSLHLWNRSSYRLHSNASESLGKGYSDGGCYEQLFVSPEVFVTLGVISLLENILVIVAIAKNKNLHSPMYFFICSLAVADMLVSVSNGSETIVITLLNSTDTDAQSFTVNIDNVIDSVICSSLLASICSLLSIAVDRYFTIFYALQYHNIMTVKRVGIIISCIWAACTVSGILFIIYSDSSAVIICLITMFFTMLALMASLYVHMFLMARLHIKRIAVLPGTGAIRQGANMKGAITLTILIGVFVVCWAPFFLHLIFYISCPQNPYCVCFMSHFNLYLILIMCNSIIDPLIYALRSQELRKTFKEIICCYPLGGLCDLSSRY

The first four entries, ahead of the listing:
SMILES	ARFGAP1 inhibitor	ASAP1 inh	MC4R ag barr	NRP1-CendR mod	MC4R antag cAMP	Yeast UUG start	MC4R barr conf	MOR DOR agonist
COc1ccc(-n2c(C)cc(C(=O)COC(=O)c3ccc(O)cc3O)c2C)cc1	13	12	11*	-4	9	-7	3	11
CSc1ccc(/C=C(/Sc2nnc(-c3ccccc3)o2)C(=O)O)cc1	-8	-5	22*	12	15	-23	1	4
CCOc1ccc2nc(NC(=S)NCc3ccccc3)sc2c1	5	5	18*	8	-12	-10	4	2
COc1cccc(NC(=O)N[C@@H]2CC[C@@H](CC(=O)Nc3ccccc3)O[C@@H]2CO)c1	x	x	x	x	x	-7	x	x

Main list, previewed entries included:
SMILES	ARFGAP1 inhibitor	ASAP1 inh	MC4R ag barr	NRP1-CendR mod	MC4R antag cAMP	Yeast UUG start	MC4R barr conf	MOR DOR agonist
COc1ccc(-n2c(C)cc(C(=O)COC(=O)c3ccc(O)cc3O)c2C)cc1	13	12	11*	-4	9	-7	3	11
CSc1ccc(/C=C(/Sc2nnc(-c3ccccc3)o2)C(=O)O)cc1	-8	-5	22*	12	15	-23	1	4
CCOc1ccc2nc(NC(=S)NCc3ccccc3)sc2c1	5	5	18*	8	-12	-10	4	2
COc1cccc(NC(=O)N[C@@H]2CC[C@@H](CC(=O)Nc3ccccc3)O[C@@H]2CO)c1	x	x	x	x	x	-7	x	x
Cc1occc1C(=O)Nc1nnc(-c2cccs2)s1	7	-21	13*	-23	9	x	4	10
Cc1occc1C(=O)Nc1nccs1	12	11	-2	13	6	12	x	x
O=C(Nc1ccccc1)Nc1nnc(-c2cccs2)s1	6	4	-1	-10	10	-6	x	x
COc1ccc(NC(=O)Nc2nnc(-c3ccccc3SCc3ccccc3)s2)cc1	-15	12	18*	-7	1	-9	17*	5
COc1ccc(NC(=O)Nc2nnc(-c3cccs3)s2)cc1	5	0	13*	4	-2	x	0	5
COc1cccc(S(=O)(=O)N[C@@H]2CC[C@@H](CC(=O)NCc3ccc(F)cc3)O[C@@H]2CO)c1	x	x	x	x	x	3	x	x
C[C@H](CO)N1C[C@H](C)[C@H](CN(C)S(=O)(=O)c2ccccc2)OCCCC[C@H](C)Oc2ccc(NC(=O)CCCN(C)C)cc2C1=O	x	x	x	x	x	4	x	x
Cc1ccc(OCC(=O)NC(=S)Nc2cccc(NC(=O)c3ccccc3Cl)c2)cc1	-5	7	15*	-10	1	-15	6	4
O=C(COc1ccccc1)NC(=S)Nc1cccc(NC(=O)c2ccccc2Cl)c1	0	9	6	4	8	-14	x	x
CCC(=O)NC(=S)Nc1ccc(NC(=O)COc2ccc(Cl)c(C)c2)cc1	8	2	19*	-8	12	x	3	5
CCCNC(=O)NC[C@H]1[C@H](c2ccc(C3=CCCC3)cc2)[C@@H](CO)N1C(C)=O	x	x	x	x	x	-4	x	x
CO[C@@H]1CN(C)C(=O)c2ccc(NC(=O)Nc3ccccc3)cc2OC[C@H](C)N(CC2CC2)C[C@@H]1C	x	x	x	x	x	-2	x	x
CC1CCN(S(=O)(=O)c2ccc(NC(=O)Cn3nnc(-c4ccccc4F)n3)cc2)CC1	-2	0	12*	0	-6	-2	15*	7
Cc1ccc(S(=O)(=O)N2CCN(S(=O)(=O)N3CCCCC3)CC2)cc1C	-5	2	0	4	2	-12	x	x
Cc1ccc(NC(=O)c2ccc(S(=O)(=O)N3CCC(C)CC3)cc2)cc1	8	7	11*	-1	10	-14	1	4
Cc1ccc(S(=O)(=O)N2CCN(S(=O)(=O)N3CCC(C)CC3)CC2)cc1C	10	-4	10*	-10	-2	-13	4	3
CNC[C@H]1Oc2ccc(NS(C)(=O)=O)cc2CC(=O)N([C@@H](C)CO)C[C@@H]1C	x	x	x	x	x	7	x	x
C[C@@H]1CN([C@@H](C)CO)S(=O)(=O)c2ccc(-c3ccccc3F)cc2O[C@H]1CN(C)C(=O)C1CC1	x	x	x	x	x	13	x	x
O=C(N/N=C/c1ccc(F)cc1)c1cccc(NC(=O)c2ccc(F)cc2)c1	-4	-2	42*	-2	0	-7	2	2
O=C(NCc1csc2ccccc12)Nc1cc(Cl)cc(Cl)c1	14	-2	16*	7	14	x	-1	4
COc1ccc(NC(=O)Nc2ccc3c(c2)[C@@H]2C[C@@H](CC(=O)N4CCc5ccccc5C4)O[C@H](CO)[C@@H]2O3)cc1	x	x	x	x	x	-18	x	x
Cc1ccccc1S(=O)(=O)N1CC[C@@H]2[C@H](CO)Nc3ccc(-c4ccccc4F)cc3[C@@H]21	x	x	x	x	x	-26	x	x
C=CCn1c(SCC(=O)c2ccccc2)nnc1-c1cc2ccccc2o1	4	-2	2	-6	0	-3	x	x
C=CCn1c(SCC(=O)c2ccc(OC)cc2)nnc1-c1cc2cccc(OC)c2o1	8	8	53*	-9	-5	2	12*	16
COc1ccc(CNC(=S)Nc2ccc3nc(N4CCN(C)CC4)cc(C)c3c2)cc1	7	23	0	-6	15	-34	x	x
COc1ccc(CNC(=S)Nc2ccc3nc(N4CCOCC4)cc(C)c3c2)cc1	-4	3	41*	10	14	x	11*	8

Individual results from the results shown.
In MC4R antag cAMP, COc1ccc(-n2c(C)cc(C(=O)COC(=O)c3ccc(O)cc3O)c2C)cc1 shows 9
In ASAP1 inh, CSc1ccc(/C=C(/Sc2nnc(-c3ccccc3)o2)C(=O)O)cc1 shows -5

(cont.)
SMILES	ARFGAP1 inhibitor	ASAP1 inh	MC4R ag barr	NRP1-CendR mod	MC4R antag cAMP	Yeast UUG start	MC4R barr conf	MOR DOR agonist
COc1ccc(NC(=O)Nc2ccc3c(c2)C(=O)N([C@@H](C)CO)C[C@H](C)[C@@H](CN(C)S(=O)(=O)c2cn(C)cn2)OCCCC[C@@H](C)O3)cc1	x	x	x	x	x	10	x	x
c1ccc(-c2nnc(-c3c[nH]c4ccccc34)nc2-c2ccccc2)cc1	7	-2	15*	-2	8	-22	-4	1
Cc1cccc(NC(=O)Nc2ccc(C)cc2Br)c1	5	-1	12*	0	6	-6	3	9
COc1cc2c(cc1NC(=O)Nc1ccc(C)cc1)oc1ccccc12	10	6	3	4	17	-1	x	x
COc1cc2c(cc1NC(=O)Nc1ccc(F)cc1)oc1ccccc12	3	12	11*	0	-4	-14	1	3
COc1ccc(OCC(=O)Nc2cc3oc4ccccc4c3cc2OC)cc1	x	x	38*	4	-7	3	12*	14
COc1cc2c(cc1NC(=O)Nc1cccc(C)c1)oc1ccccc12	-1	14	11*	-3	6	3	2	2
C[C@@H]1CN([C@@H](C)CO)S(=O)(=O)c2ccc(C#Cc3ccccc3F)cc2O[C@H]1CN(C)C	x	x	x	x	x	-2	x	x
